Source: publication PMC6316731 (Brain Sciences, 2018)

Sequences of proteins named here, by UniProt entry; tags and fusion partners are left off. Residues count along the entry.
UniProt P22723, 39-474 limits assumed: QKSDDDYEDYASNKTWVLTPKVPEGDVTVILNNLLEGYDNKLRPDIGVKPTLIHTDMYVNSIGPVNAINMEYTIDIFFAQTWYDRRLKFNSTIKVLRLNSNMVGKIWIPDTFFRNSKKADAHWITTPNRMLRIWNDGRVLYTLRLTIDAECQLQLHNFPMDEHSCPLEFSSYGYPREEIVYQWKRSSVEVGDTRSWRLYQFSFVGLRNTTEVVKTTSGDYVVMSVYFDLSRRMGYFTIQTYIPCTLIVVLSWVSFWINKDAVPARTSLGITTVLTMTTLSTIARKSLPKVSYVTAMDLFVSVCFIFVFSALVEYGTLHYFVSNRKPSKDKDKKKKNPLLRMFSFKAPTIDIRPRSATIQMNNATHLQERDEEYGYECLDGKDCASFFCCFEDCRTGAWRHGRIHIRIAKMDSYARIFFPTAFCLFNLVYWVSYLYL
UniProt Q8BHJ7, 32-463 limits assumed: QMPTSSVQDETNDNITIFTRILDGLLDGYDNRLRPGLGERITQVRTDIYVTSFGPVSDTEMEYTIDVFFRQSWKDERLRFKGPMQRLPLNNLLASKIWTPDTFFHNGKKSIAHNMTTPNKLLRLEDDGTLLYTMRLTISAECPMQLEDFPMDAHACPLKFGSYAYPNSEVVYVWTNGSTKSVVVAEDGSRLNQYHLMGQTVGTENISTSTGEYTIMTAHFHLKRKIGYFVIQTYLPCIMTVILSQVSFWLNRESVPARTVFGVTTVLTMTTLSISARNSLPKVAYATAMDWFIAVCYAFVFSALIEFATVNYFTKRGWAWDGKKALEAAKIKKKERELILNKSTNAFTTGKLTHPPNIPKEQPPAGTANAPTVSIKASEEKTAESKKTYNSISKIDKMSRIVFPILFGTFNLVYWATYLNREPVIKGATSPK
UniProt P63080, 26-473 partner limits assumed: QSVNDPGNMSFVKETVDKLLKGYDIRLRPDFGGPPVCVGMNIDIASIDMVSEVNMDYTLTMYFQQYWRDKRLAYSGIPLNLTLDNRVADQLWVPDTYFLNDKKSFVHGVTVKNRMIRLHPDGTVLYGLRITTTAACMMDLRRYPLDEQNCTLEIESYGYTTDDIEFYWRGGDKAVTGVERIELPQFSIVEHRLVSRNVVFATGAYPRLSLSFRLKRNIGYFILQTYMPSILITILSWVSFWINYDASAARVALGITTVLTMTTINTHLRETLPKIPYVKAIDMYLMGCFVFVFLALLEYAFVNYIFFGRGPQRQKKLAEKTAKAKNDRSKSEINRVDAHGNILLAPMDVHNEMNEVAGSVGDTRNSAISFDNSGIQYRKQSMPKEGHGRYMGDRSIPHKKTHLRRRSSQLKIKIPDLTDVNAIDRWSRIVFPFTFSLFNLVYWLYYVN

Experiments:
[1] = target: GABAA receptor α5 subunit (Mus musculus, UniProt P22723+Q8BHJ7); experiment: Reduction of IGABA by co-application of L-655708 in MSNs; type: cell-based
[2] = test system: GABAA receptors containing the α5 subunit; settings: cited from earlier work

In the case of `CCOC(=O)c1ncn2c1[C@@H]1CCCN1C(=O)c1cc(OC)ccc1-2`, the “Effect on IGABA amplitude” value [1] is listed as “small reduction of the IGABA amplitude”, the EC50 ([1]; read-out: EC50, GABA current density in the presence of L-655708) is listed as 119 nM and the “Selectivity for GABAA receptors containing the α5 subunit over those that contain α1, α2, α3 and α6” value [2] is listed as 50-100 times.
